# Target: T1, MAO-B (Rattus norvegicus, UniProt P19643)
# The chains behind the UniProt entries cited, without tags or fusion partners.
# UniProt P19643, whole entry: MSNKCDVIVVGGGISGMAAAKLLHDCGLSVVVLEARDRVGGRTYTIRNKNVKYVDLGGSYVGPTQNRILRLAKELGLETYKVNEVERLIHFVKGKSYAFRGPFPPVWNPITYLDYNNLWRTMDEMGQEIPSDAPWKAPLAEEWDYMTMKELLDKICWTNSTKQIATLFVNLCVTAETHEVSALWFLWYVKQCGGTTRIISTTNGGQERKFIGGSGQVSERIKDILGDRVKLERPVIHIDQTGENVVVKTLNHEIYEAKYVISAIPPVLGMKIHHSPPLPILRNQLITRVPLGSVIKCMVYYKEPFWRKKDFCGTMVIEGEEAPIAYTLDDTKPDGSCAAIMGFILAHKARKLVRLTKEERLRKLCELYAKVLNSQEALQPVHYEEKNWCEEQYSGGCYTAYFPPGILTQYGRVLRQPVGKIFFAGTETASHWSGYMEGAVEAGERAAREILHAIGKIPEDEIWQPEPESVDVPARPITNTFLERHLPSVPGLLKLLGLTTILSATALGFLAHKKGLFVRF
# T1 construct: the whole brain without cerebellum was dissected rapidly and frozen on dry ice; from tissue; host or cells: whole brain without cerebellum of orally dosed male Wistar rats, homogenate
# Assay: Inhibition of Type B monoamine oxidase activity in rat brain synaptosomes
# Format: biochemical
# Details: substrate [^14 C]-PEA 200 μM; read-out: Inhibitory Concentration - IC50 MAO-B
# Procedure: Inhibition of Type A and Type B Monoamine Oxidase Activity in Rat Brain Synaptosomes
# To determine the selective inhibition of the two forms of monoamine oxidase (MAO).
# Although various methods for measuring MAO activity are available, the described method involves the extraction of the radiolabeled deaminated metabolites of [^3 H]-5HT or [^14 C]-β-phenethylamine. This procedure allows MAO-A and MAO-B activities to be measured either simultaneously or individually (3).
# c. Add 12 μl of [^14 C]-PEA to 2 ml of the 5 mM PEA solution. (final amine concentration in the assay is 200 μM: see below.)
# 5. Equal amounts of MAO-A (5HT) and MAO-B (PEA) substrates are combined for simultaneously testing both MAO types, i.e. mixed stock solution of 2.5 mM 5HT and 2.5 mM PEA, 40 μl of this mixed solution gives a 200 μM final concentration of each amine in the assay. […]
# Tubes are preincubated for 15 minutes at 37° C. and the assay is started by adding 40 μl of combined substrate ([^3 H]-5HT and [^14 C]-PEA) at 15 second intervals. […] Tissue blank values are determined by adding the acid before the radioactive substrate. […] 10 ml of Liquiscint is added and the samples are counted using window settings for ^14 C in one channel and ^3 H in the second channel. IC50 values are determined by log-probit analysis.
smiles,measurement,value
"COc1cc(Br)c2oc(C3CCNCC3)cc2c1 [Brofaromine, reference compound]",IC50,23 µM

# Reference: patent publication US5580982A, “Substituted 3-(aminoalkylamino)-1,2-benzisoxazoles and related compounds” (priority 1995, dated 1996)
